The entries are a selection whose mix differs from that of the whole data set. Results filed as inconclusive are left out. Some structures show a salt or complex split into parts, the way the source records it. Active and inactive are the calls of the source. The rule behind the calls is not given here.
% is set by controls: 0 for no effect and ±100 for the full control effect.

Chains of the proteins cited; added tags and fusions are not shown.
UniProt P21964, whole entry: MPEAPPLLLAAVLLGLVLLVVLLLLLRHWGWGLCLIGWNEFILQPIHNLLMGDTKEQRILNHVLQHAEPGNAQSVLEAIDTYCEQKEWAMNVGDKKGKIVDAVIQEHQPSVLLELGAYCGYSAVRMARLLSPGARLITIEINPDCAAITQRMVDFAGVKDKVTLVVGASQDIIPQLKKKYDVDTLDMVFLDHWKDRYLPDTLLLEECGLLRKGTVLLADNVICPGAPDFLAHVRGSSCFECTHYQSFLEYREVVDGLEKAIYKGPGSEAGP

The experiment concerns the target Catechol O-methyltransferase (Homo sapiens) (UniProt P21964). As to the kind of experiment: Primary Screen for Target Class Profiling of Small Molecule Inhibitors of Methyltransferases. Conditions: purified enzyme, MTase-Glo SAH luminescence; at 40 µM; active compounds read low. An excerpt: PI: Matthew D. Hall Ph.D. and Quinlin M. Hanson Ph.D.
National Center for Advancing Translational Sciences (NCATS)
National Institute of Health (NIH), Rockville, MD
Target class profiling (TCP) is a chemical biology approach amenable to investigating understudied biological targets. TCP is achieved by developing a generalizable assay platform and applying it to screen a curated set of compound libraries against representative members of a target class. Small molecule methyltransferases (SMMTase) are a subclass of methyltransferase that act on metabolites to modulate signaling pathways, metabolize xenobiotics, or balance the available methyl pool. […]
High-through put screening assays were developed at the National Center for Advancing Translational Science (NCATS) for the enzymes NNMT, PNMT, HNMT, GNMT, COMT, and GAMT. Enzymatic activity was measured as a function of SAM cofactor conversion using the MTase Glo kit (Promega) for all enzymes. […] The IC50 and efficacy (maximal response) values were determined for each dose-response curve. […]
10; Time; 30 min; Incubation, luminescence evolution.
11; Detection; Luminescence; ViewLux uHTS Microplate Imager (PerkinElmer). […]
Consider `C/C1=C2N=C(/C=C3N=C(/C(C)=C4\N=C(C(CC(N)=O)C4(C)CCC(=O)NCC(C)OP(=O)([O-])OC4C(CO)OC(n5cnc6cc(C)c(C)cc65)C4O)C4(C)N=C1C(CCC(N)=O)C4(C)CC(N)=O)C(CCC(N)=O)C\3(C)C)C(CCC(N)=O)C/2(C)CC(N)=O.[C-]#N.[Co]` (configuration not stated), for which the activity change, negative = inhibition was active: -21.6%. In the case of `CCOP(=O)(CC)Oc1ccc([N+](=O)[O-])cc1` (configuration not stated) it was inactive: -2.63%.
